Earlier results, collected in patent US20040204482A1, “Extended release oral dosage form” (priority 2001, published 2004).

Settings: at 25° C.

water solubility: 70 mg/mL
Compound: NC(=O)c1ccc(F)c2c1C[C@@H](N(C1CCC1)C1CCC1)CO2.O.O=C(O)C(O)C(O)C(=O)O [(R)-3-N,N-dicyclobutylamino-8-fluoro-3,4-dihydro-2H-1-benzopyran-5-carboxamide hydrogen (2R,3R)-tartrate monohydrate]
